Measured values taken from EP0533243B1, “Hydantoin and succinimide-substituted spiroindanylcamphorsulfonyl derivatives” (Merck & Co., Inc., priority 1991, dated 1993).

Molecular target: T1, uterine OT receptors (Rattus norvegicus, UniProt P70536)
T1 sequence (P70536 1-388): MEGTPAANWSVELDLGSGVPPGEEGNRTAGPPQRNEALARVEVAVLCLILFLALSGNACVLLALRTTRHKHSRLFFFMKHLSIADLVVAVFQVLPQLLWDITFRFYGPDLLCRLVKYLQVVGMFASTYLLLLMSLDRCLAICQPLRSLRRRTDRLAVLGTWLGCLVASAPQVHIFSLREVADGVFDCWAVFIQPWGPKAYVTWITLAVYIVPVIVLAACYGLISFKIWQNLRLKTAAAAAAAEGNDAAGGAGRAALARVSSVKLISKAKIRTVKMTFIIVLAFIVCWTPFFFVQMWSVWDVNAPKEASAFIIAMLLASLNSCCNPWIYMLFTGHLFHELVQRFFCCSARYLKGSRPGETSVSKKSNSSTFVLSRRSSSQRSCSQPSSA
Assay: [3H]oxytocin radioligand binding assay, saturation binding
Design: species or system rats
Conditions: uterus crude membrane preparation
Description: The high affinity binding of [^3H] […] 1985 J. Clin. Endocrinol. Metab. 60:37.

pKd: 9.15
Substance: [tyrosyl, 3,5-[^3H]OT

pKd: −log10 of the molar value.
